Paper PMC9561264

What was measured:
[1] = target: hOGG1 (human oxoguanine glycosylase 1), wildtype (human) (UniProt O15527); experiment: fluorescence polarisation; reducing conditions (5 mM DTT); 5 nM Ni-NTA AF488 labelled his6-hOGG1, unlabelled protein titrated (Myc 1.22 nM-2 uM, LSD1 1.38 nM-60 uM, hOGG1 0.24 nM-8 uM); 20 mM Tris-HCl pH 7.6, 200 mM NaCl; 25 C; single Hill fit
[2] = target: hOGG1 (human oxoguanine glycosylase 1), wildtype (human) (UniProt O15527); experiment: fluorescence polarisation; oxidising conditions (5 uM H2O2); 5 nM Ni-NTA AF488 labelled his6-hOGG1, unlabelled protein titrated (Myc 1.22 nM-2 uM, LSD1 1.38 nM-60 uM, hOGG1 0.24 nM-8 uM); 20 mM Tris-HCl pH 7.6, 200 mM NaCl; 25 C; single Hill fit

Kd [1]: 754 nM | Kd [2]: 867 nM
Substance: LSD1 (lysine specific demethylase 1) (from UniProt O60341 1-852) (enzyme; other documents disagree on this pair)
